Tested on: DYT1 patient plasma derived EVs
Assay: Plasma-derived EV proteomics (ExoQuick ULTRA, DIA LC/MS/MS), DYT1 vs Healthy Controls
Set-up: species or system human
Settings: Hs. Plasma EVs (DYT1/WT); significance of genotype difference
Procedure: Data was obtained for extracellular vesicles using previously acquired samples. The ExoQuick® ULTRA EV Isolation System was used to fractionate and enrich EVs from plasma. Isolated plasma EV samples were then submitted to proteomic analysis by the Duke Proteomics and Metabolomics Core Facility (DPMCF). At the DPMCF, quantitative (LC/MS/MS) was performed on 500 ng of each sample, using an EvoSep One UPLC system coupled to a Thermo Orbitrap Astral high-resolution accurate mass tandem mass spectrometer (Thermo). Briefly, the sample was eluted directly from an Evotip which was subjected to a low organic wash and then subjected to an analytical separation using a 1.7 μm EvoSep 150 um ID×15 cm endurance (EveoSep) column running an SPD30 gradient from approximately 5 to 30% acetonitrile with 0.1% formic acid with a column temperature of 50 C. Data collection on the Orbitrap Astral mass spectrometer was performed in a data-independent acquisition (DIA) mode of acquisition with a r=240,000 (@m/z 200) full MS scan from m/z 380-980 with a target AGC value of 4e5 ions. Fixed DIA, windows of 4 m/z from m/z 380 to 980 DIA MS/MS scans were acquired in the Astral with a target AGC value of 5e4 and a max fill time of 6 ms. HCD collision energy setting of 27% was used for all MS2 scans.

Substance | -LogP
USP7 | 1.411
ARL8B | 1.86

Reference: patent US20260266848A1, “COMPOSITIONS AND METHODS FOR DIAGNOSING AND TREATING DYSTONIA” (Duke University, priority 2023, published 2026)
